The source of these data is paper PMC5803408 (Structure (London, England : 1993), 2018).

Positions count from the first letter of the chain named.

What all share (type): binding
For assay [1], the target named is T1, human UHRF1 TTD D142A/E153A (Homo sapiens, UniProt Q96T88, D142A/E153A).
T1 sequence (Q96T88 126-284 D142A/E153A): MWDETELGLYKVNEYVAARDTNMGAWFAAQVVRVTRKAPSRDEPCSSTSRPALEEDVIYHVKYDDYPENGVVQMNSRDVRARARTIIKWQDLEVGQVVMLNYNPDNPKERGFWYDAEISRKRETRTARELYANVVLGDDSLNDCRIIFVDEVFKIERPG
Kind of assay: ITC, PBR peptide over TTD D142A/E153A double mutant.

A further assay deals with T2, human UHRF1 TTD D142A (Homo sapiens, UniProt Q96T88, D142A).
T2 sequence (Q96T88 126-284 D142A): T1 sequence (Q96T88 126-284 D142A/E153A) with A28E
Kind of assay: ITC, PBR peptide over TTD D142A mutant. The conditions noted are these: versus wild-type TTD.

Another assay has as its system human UHRF1 TTD N194A. Kind of assay: ITC, PBR peptide over TTD N194A mutant. As to conditions: Fig. S2C, D.
The test system of the next assay is human UHRF1 TTD N147A. Kind of assay: ITC, PBR peptide over TTD N147A mutant. The conditions noted are these: Fig. S2C, D. (Isothermal titration calorimetry measures the heat released or taken up as one component is titrated into another.)
The target of another assay is T3, human UHRF1 TTD E153A (Homo sapiens, UniProt Q96T88, E153A).
T3 sequence (Q96T88 126-284 E153A): T1 sequence (Q96T88 126-284 D142A/E153A) with A17D
Kind of assay: ITC, PBR peptide over TTD E153A mutant. The conditions noted are these: versus wild-type TTD.

The target in assay [2] is T4, human UHRF1 TTD-PHD dual domains (Homo sapiens, UniProt Q96T88).
T4 sequence (Q96T88 126-366): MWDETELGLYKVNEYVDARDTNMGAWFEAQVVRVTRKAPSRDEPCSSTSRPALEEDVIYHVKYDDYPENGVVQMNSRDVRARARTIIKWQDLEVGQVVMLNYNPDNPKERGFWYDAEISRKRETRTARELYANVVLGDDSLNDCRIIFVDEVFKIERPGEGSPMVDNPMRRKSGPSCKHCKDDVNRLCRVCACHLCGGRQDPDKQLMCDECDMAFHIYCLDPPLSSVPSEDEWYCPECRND
Kind of assay: ITC, PBR peptide over TTD-PHD dual domains. As to conditions: 25 mM Tris-HCl, pH 7.5, 100 mM NaCl, 25°C, Fig. 3E: average and standard deviation derived from two independent measurements.

Another assay addresses T5, human UHRF1 TTD D145A (Homo sapiens, UniProt Q96T88, D145A).
T5 sequence (Q96T88 126-284 D145A limits assumed): T1 sequence (Q96T88 126-284 D142A/E153A) with A17D, D20A, A28E
Kind of assay: ITC, PBR peptide over TTD D145A mutant. The conditions noted are these: versus wild-type TTD.

The target of another assay is T6, human UHRF1 TTD F152A (Homo sapiens, UniProt Q96T88, F152A).
T6 sequence (Q96T88 126-284 F152A limits assumed): T1 sequence (Q96T88 126-284 D142A/E153A) with A17D, F27A, A28E
Kind of assay: ITC, PBR peptide over TTD F152A mutant. The conditions noted are these: versus wild-type TTD.

In another assay the target is T7, human UHRF1 TTD domain (Homo sapiens, UniProt Q96T88).
T7 sequence (Q96T88 126-284): T1 sequence (Q96T88 126-284 D142A/E153A) with A17D, A28E
Kind of assay: ITC, PBR peptide titrated over TTD domain. As to conditions: versus wild-type PBR.

Take `C[C@H](NC(=O)[C@H](Cc1ccccc1)NC(=O)CNC(=O)CNC(=O)[C@@H](N)CCC(=O)O)C(=O)N[C@@H](CO)C(=O)N1CCC[C@H]1C(=O)N[C@@H](CCCNC(=N)N)C(=O)N[C@H](C(=O)NCC(=O)N[C@@H](CCCCN)C(=O)NCC(=O)N[C@@H](CCCCN)C(=O)N[C@@H](Cc1c[nH]c2ccccc12)C(=O)N[C@@H](CCCCN)C(=O)N[C@@H](CCCNC(=N)N)C(=O)N[C@@H](CCCCN)C(=O)N[C@@H](CO)C(=O)N[C@@H](C)C(=O)NCC(=O)NCC(=O)NCC(=O)N1CCC[C@H]1C(=O)N[C@@H](CO)C(=O)N[C@@H](CCCNC(=N)N)C(=O)N[C@@H](C)C(=O)NCC(=O)N[C@@H](CO)C(=O)N1CCC[C@H]1C(=O)N[C@@H](CCCNC(=N)N)C(=O)N[C@@H](CCCNC(=N)N)C(=O)N[C@H](C(=O)O)[C@@H](C)O)[C@@H](C)O` [PBR]: the “effect of TTD D142A/E153A on PBR binding” value in assay [1] was “nearly abolished the binding”. In addition, the “reduction of binding affinity by TTD D142A” value on human UHRF1 TTD D142A is reported as greater than 3 fold. Also, the “effect of TTD N194A on PBR binding” value in the assay on human UHRF1 TTD N194A was “did not lead to appreciable change in the TTD – PBR binding”. The “effect of TTD N147A on PBR binding” value in the assay on human UHRF1 TTD N147A is given as “did not lead to appreciable change in the TTD – PBR binding”. For the same molecule, the “reduction of binding affinity by TTD E153A” value at human UHRF1 TTD E153A is listed as greater than 3 fold. In assay [2], the “weaker binding of PBR with TTD-PHD than with TTD” value is recorded as ~ 3 fold. Moreover, at human UHRF1 TTD D145A, the “reduction of binding affinity by TTD D145A” value is reported as greater than 3 fold. Moreover, at human UHRF1 TTD F152A, the “reduction of binding affinity by TTD F152A” value was greater than 3 fold.
As for `C[C@H](NC(=O)[C@H](Cc1ccccc1)NC(=O)CNC(=O)CNC(=O)[C@@H](N)CCC(=O)O)C(=O)N[C@@H](CO)C(=O)N1CCC[C@H]1C(=O)N[C@@H](CCCNC(=N)N)C(=O)N[C@H](C(=O)NCC(=O)N[C@@H](CCCCN)C(=O)NCC(=O)N[C@@H](CCCCN)C(=O)N[C@@H](Cc1c[nH]c2ccccc12)C(=O)N[C@@H](CCCCN)C(=O)N[C@@H](C)C(=O)N[C@@H](CCCCN)C(=O)N[C@@H](CO)C(=O)N[C@@H](C)C(=O)NCC(=O)NCC(=O)NCC(=O)N1CCC[C@H]1C(=O)N[C@@H](CO)C(=O)N[C@@H](CCCNC(=N)N)C(=O)N[C@@H](C)C(=O)NCC(=O)N[C@@H](CO)C(=O)N1CCC[C@H]1C(=O)N[C@@H](CCCNC(=N)N)C(=O)N[C@@H](CCCNC(=N)N)C(=O)N[C@H](C(=O)O)[C@@H](C)O)[C@@H](C)O` [R649A], the “reduction of TTD – PBR binding by PBR mutation” value on human UHRF1 TTD domain is on record as ~ 20 fold.
Regarding `C[C@H](NC(=O)[C@H](Cc1ccccc1)NC(=O)CNC(=O)CNC(=O)[C@@H](N)CCC(=O)O)C(=O)N[C@@H](CO)C(=O)N1CCC[C@H]1C(=O)N[C@@H](CCCNC(=N)N)C(=O)N[C@H](C(=O)NCC(=O)N[C@@H](CCCCN)C(=O)NCC(=O)N[C@@H](CCCCN)C(=O)N[C@@H](Cc1c[nH]c2ccccc12)C(=O)N[C@@H](CCCCN)C(=O)N[C@@H](CCCNC(=N)N)C(=O)N[C@@H](CCCCN)C(=O)N[C@@H](CO)C(=O)N[C@@H](C)C(=O)NCC(=O)NCC(=O)NCC(=O)N1CCC[C@H]1C(=O)N[C@@H](C)C(=O)N[C@@H](CCCNC(=N)N)C(=O)N[C@@H](C)C(=O)NCC(=O)N[C@@H](CO)C(=O)N1CCC[C@H]1C(=O)N[C@@H](CCCNC(=N)N)C(=O)N[C@@H](CCCNC(=N)N)C(=O)N[C@H](C(=O)O)[C@@H](C)O)[C@@H](C)O` [S657A], the “reduction of TTD – PBR binding by PBR mutation” value on human UHRF1 TTD domain is given as ~ 2 fold.
